Values quoted from earlier work in patent US20060058225A1, “Used of inhibitors of phospholipase a2 for the treatment, prevention or diagnosis of neural inflammatory or demyelinating disease” (McGill University, priority 2002, published 2006).

Test system: EAE
Conditions: timing of treatment not stated

MPQX
clinical score in treated animals: 0.8
